The text below walks through data of patent publication US20200181284A1, “EPIGENETIC INHIBITORS FOR SENSITIZING HEMATOLOGIC OR OTHER MALIGNANCIES TO GLUCOCORTICOID THERAPY” (UNIVERSITY OF SOUTHERN CALIFORNIA, priority 2017, published 2020).

In this assay the target is T1, hG9a (Homo sapiens, UniProt Q96KQ7).
T1 construct: transfected with a plasmid encoding full length HA-hG9a and treated with 2 μM UNC0646; expressed in transfected cells; host or cells: Cos-7
T1 sequence (Q96KQ7 1-1210): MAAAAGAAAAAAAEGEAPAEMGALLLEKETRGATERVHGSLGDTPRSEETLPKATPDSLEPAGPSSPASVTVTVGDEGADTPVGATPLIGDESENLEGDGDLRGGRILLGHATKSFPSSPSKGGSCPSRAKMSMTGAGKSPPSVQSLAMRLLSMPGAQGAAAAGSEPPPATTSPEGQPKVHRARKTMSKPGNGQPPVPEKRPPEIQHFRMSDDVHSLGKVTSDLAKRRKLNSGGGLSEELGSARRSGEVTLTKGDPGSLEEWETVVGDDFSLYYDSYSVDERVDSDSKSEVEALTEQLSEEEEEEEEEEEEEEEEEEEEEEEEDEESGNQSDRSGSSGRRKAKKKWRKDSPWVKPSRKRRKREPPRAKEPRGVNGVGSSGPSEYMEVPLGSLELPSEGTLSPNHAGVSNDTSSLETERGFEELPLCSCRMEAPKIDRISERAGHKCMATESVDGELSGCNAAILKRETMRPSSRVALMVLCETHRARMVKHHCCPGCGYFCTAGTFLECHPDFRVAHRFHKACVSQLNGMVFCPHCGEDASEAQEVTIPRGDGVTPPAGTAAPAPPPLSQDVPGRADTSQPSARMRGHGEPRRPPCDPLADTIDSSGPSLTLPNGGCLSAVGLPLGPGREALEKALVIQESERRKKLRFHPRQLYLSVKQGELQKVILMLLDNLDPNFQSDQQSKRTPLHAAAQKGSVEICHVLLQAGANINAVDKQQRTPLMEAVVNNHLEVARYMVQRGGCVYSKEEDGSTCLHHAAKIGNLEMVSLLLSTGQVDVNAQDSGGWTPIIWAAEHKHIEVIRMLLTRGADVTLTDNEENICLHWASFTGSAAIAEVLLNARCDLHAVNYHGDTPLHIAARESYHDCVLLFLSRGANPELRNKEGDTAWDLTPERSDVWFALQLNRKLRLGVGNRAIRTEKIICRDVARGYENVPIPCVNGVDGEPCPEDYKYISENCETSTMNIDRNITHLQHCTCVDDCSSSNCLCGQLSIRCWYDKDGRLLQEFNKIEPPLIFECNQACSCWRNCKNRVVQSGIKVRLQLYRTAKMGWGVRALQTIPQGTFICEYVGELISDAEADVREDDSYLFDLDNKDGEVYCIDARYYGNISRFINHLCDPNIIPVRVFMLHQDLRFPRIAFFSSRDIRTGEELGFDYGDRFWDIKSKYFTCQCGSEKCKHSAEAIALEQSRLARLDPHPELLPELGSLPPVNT
Description: Methylation of HA-hG9a in Cos-7 cells (pan met-K immunoprecipitation/immunoblot). Type of assay: cell-based, African green monkey. The note with it: 2 μM inhibitor, 24 h. As to the method: Cos-7 or A549 cells were seeded on 10-cm dishes the day before transfection. Cells were transiently transfected (where indicated) using Lipofectamine 2000 (Invitrogen) with 5 μg each of the indicated plasmids according to the manufacturer's protocol. […] Protein extracts were incubated with 1 μg of the indicated primary antibodies overnight at 4° C. with shaking. Protein A/G Plus Agarose (Santa Cruz sc-2003) beads were added and the mixture was incubated 2 hr at 4° C. The immunoprecipitates were separated on SDS-PAGE. […] In immunoprecipitation experiments 3% of the input of each sample was analyzed by immunoblot using the antibodies listed. […] For FIGS. 17B-1 and 17B-2, after protein methylation reactions in vitro methylated proteins were detected by immunoblot with pan methyllysine antibody (pan met-K). […]

Structures are written as SMILES.

In the case of `COc1cc2c(NC3CCN(C(C)C)CC3)nc(C3CCCCC3)nc2cc1OCCCN1CCCC1` [UNC0638], the “pan-methyllysine antibody signal on wild type hG9a” value is on record as “strongly decreased”.
